The record followed here is patent US20110098180A1, “Herbicide-Resistant Plants, And Polynucleotides And Methods For Providing Same” (United States Department of Agriculture, priority 2002, published 2011).

Chains of the proteins cited; added tags and fusions are not shown. Residues count along the entry.
UniProt Q66PY0, 77-580: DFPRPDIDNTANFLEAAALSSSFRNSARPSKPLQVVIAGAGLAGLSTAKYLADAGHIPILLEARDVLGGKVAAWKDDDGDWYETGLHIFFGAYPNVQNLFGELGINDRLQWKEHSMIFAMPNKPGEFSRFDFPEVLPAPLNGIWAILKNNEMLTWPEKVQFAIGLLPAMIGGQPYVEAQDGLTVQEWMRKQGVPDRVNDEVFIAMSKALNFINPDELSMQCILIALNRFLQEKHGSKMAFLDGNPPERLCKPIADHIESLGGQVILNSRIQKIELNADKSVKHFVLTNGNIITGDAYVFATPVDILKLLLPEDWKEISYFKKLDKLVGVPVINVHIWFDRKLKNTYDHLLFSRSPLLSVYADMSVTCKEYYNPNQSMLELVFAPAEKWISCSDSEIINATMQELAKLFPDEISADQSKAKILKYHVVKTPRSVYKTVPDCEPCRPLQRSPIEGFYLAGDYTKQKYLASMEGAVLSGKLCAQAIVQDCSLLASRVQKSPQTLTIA
UniProt Q66PY0, 1-580 L425P: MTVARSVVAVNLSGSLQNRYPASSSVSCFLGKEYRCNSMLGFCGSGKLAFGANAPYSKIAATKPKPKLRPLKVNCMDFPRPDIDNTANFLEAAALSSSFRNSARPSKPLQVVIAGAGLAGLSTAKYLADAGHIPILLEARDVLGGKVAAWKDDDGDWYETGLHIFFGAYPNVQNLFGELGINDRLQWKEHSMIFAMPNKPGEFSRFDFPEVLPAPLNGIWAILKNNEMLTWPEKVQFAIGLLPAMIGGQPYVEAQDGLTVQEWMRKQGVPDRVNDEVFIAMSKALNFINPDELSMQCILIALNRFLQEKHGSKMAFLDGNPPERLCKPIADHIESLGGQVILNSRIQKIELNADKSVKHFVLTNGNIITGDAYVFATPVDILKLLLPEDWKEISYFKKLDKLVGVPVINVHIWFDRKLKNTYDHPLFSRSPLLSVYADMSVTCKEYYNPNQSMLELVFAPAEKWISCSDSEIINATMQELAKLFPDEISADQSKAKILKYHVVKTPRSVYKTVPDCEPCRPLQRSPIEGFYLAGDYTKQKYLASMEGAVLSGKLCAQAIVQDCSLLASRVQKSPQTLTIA
UniProt Q66PY0, 1-580 L542R: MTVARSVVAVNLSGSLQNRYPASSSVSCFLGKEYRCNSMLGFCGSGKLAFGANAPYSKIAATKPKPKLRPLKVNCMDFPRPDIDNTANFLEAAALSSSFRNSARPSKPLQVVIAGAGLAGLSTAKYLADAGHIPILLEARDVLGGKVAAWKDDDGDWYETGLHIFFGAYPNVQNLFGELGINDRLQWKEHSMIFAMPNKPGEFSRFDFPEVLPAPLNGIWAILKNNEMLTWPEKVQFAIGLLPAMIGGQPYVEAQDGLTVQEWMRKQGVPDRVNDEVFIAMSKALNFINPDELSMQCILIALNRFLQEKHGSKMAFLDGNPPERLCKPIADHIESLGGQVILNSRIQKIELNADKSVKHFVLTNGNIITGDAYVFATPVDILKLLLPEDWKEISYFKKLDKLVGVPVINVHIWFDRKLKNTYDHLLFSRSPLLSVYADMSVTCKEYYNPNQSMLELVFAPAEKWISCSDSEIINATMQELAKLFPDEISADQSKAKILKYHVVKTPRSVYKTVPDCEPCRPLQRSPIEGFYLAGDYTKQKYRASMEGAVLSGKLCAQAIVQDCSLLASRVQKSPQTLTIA
UniProt Q66PY0, 1-580 V509G: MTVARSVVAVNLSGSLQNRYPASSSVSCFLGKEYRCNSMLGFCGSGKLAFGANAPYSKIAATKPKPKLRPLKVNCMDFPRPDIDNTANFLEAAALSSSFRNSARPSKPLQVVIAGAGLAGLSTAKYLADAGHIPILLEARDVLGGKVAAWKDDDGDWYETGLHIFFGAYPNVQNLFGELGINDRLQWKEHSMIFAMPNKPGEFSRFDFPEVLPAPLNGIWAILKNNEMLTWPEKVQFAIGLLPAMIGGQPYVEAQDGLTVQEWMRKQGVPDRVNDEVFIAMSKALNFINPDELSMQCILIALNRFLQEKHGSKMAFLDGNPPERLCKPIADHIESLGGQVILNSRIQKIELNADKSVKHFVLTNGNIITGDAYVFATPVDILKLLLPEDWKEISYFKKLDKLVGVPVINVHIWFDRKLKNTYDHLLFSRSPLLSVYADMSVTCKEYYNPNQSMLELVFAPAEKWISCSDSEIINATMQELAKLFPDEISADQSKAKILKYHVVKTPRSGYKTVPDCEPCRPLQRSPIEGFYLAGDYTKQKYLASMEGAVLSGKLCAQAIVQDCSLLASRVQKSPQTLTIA

Common to all, as to assay type: biochemical
Assay [1] concerns the target hydrilla PDS position 304 Arginine, His-tagged (Hydrilla verticillata, UniProt Q66PY0). Description: Cross-resistance testing, His-tagged column-purified PDS (Table 2A). Conditions: read-out: I50, Arginine at 304. An excerpt:
The alternative approach utilized His-tagging and column purification of the mutant PDS protins.
In order to express pds in bacteria, deletion clones were made for each of the three potential start codons with and without ATG. […] The forward primers used were ORF (5′ […] 3′), ORF-ATG (5′ […] 3′), 3_ORF (5′[…] 3′) and 3_ORF-ATG (5′ […] 3′). The resulting plasmids were named pORF, pORF-ATG (minus ATG codon), p3ORF and p3ORF-ATG. The pds-containing EcoRI-fragments of these plasmids were subcloned into the EcoRI site of pRSETb vector (Invitrogen) for Histidine tagging and bacterial expression. The resulting constructs were pHy4SET, pHy4SET-ATG (minus ATG), p3ORFSET and p3ORFSET-ATG. […]
All pRSET derived constructs were transformed into BL21(DE3)pLysS cells (Invitrogen), induced with IPTG for protein expression, and the His tag overproduced proteins analyzed by Western blot using Anti-HisG antibody (Invitrogen, cat. #R940-25). […]
His-tagged, purified proteins prepared as described above were transferred to the assay buffer on a PD10 column (Amersham Bioscience) and the concentration was adjusted to 100 μg/mL. […] I^50 values were calculated from the regressions.

Assay [2] addresses Hydrilla PDS Leu^425 → Pro (Hydrilla verticillata, UniProt Q66PY0, L425P). Nature of the assay: Fluridone enzyme inhibition assay, other substitutions (Table 3). Conditions: read-out: I50. The protocol: (§1) To explore whether mutations at positions other than 304 of the hydrilla PDS enzyme and corresponding positions of other plant PDS enzymes also confer herbicide resistance, mutations discovered in Synechococcus strain PCC7942 (Leu^320→Pro; Val^403→Gly; Leu^436→Arg) were introduced into the hydrilla PDS sequence at the corresponding locations, and the resulting PDS enzymes tested for resistance.
(§2) Phytoene desaturase activity and its inhibition by herbicides was determined using an in vitro system using components derived from the in vivo production of phytoene and phytoene desaturase proteins. All mutations described in Examples 3 and 4 were tested. […] The clones were used for the heterologous expression of Hydrilla-PDS-enzyme. In particular, bacterial cultures were grown from single colonies overnight in Wu-broth (6.27 g/L K2HPO4, 1.8 g/L KH2PO4, 0.5 g/L Na-citrate, 0.9 g/L (NH4)2SO4, 10 g/L tryptone, 5 g/L yeast extract, 10 g/L NaCl, 44 ml/L glycerol, 0.1 mM MgSO4, pH 7.2) with kanamycin. 1-mL was aliquoted in centrifuge tube and stored at −80° C. For expression, 1 L LB-medium with kanamycin was inoculated with 1-mL Wu-culture and grown for 24 h at 37° C. to stationary phase with shaking at 200 rpm. The cells were collected by centrifugation at 2000×g. All of the following steps were done at 4° C. unless otherwise noted. Active soluble PDS enzyme was extracted by lysing the transformed E. coli cells using a French Press at 20,000 psi in assay buffer consisting of 100 mM Tris-HCl, pH 7.2, 10 mM magnesium-chloride, 0.1 mM NADP, 0.1 mM FAD, 10 mM cysteine, 5 mM DTT, 1 mM aminocaproic acid, and 1 μg/ml leupeptin. The soluble fraction containing PDS activity was obtained by centrifugation for 10 min at 1200×g. After 24 h they were centrifuged down and used in PDS enzyme activity assays as described below.
(§3) Generally, PDS protein fractions prepared as described above (Non-His-tagged and His-tagged) were mixed with a soluble fraction from phytoene-producing E. coli cells. […]

The target in assay [3] is Hydrilla PDS Leu^542 → Arg (Hydrilla verticillata, UniProt Q66PY0, L542R). Described as above. Conditions: read-out: I50. The protocol: as §1, §2, §3
Assay [4] has as its target Hydrilla PDS Val^509 → Gly (Hydrilla verticillata, UniProt Q66PY0, V509G). The description is as above. Conditions: read-out: I50. How it is done:
as §1, §2, §3

Turning to Fluridone, the IC50 in assay [1] is 305000 nM; in assay [2] it was 320 nM; in assay [3] it was 900 nM; in assay [4] it was 2900 nM.
